Experimental data: BindingDB's records for doi:10.1111/j.1476-5381.1996.tb15304.x (Smithkline Beecham Pharmaceuticals, 1996)

By UniProt entry, the sequences of proteins in these tests, tags left out.
UniProt P41595, whole entry: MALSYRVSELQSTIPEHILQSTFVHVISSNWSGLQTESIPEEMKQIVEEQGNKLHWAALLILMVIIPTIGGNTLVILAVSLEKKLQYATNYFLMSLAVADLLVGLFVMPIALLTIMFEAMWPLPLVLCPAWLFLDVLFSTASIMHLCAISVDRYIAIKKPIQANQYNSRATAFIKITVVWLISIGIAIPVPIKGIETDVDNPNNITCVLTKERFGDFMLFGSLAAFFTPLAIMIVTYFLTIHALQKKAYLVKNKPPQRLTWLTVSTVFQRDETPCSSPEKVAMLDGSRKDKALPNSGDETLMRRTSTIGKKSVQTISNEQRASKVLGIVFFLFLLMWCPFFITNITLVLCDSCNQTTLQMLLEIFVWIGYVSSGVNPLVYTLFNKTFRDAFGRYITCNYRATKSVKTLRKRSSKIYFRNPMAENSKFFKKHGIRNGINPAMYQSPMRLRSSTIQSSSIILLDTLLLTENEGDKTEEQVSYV

Biological target: 5-hydroxytryptamine receptor 2B (Homo sapiens, UniProt P41595)

CC(N)Cc1c[nH]c2ccc(OCc3cccs3)cc12 (stereo unspecified) [NSC_5311036]
Ki: 79.4 nM
